{"source": "patent US20180371033A1", "about": "“THERAPEUTIC PEPTIDES AND METHODS OF USE THEREOF” (priority 2015, published 2018)", "key": {"[1]": {"assay_type": "in vivo, mice", "settings": "14C whole body autoradiography", "excerpt": "This example describes biodistribution of peptides.\nND indicates the peptide was not detected in that tissue."}, "[2]": {"experiment": "Brain section autoradiography: peptide homing to ventricles and cerebral spinal fluid", "assay_type": "in vivo, Female Harlan athymic nude mice", "settings": "14C signal in sagittal/coronal brain sections, 3 hours after administration", "excerpt": "The experiment was done in duplicates."}, "[3]": {"settings": "whole brain homogenates of mice dosed intravenously with 14C-labeled peptide"}, "[4]": {"settings": "14C-radiolabeled peptide, tail vein injection, kidneys ligated, target three hours circulation"}, "[5]": {"settings": "radioactivity signal per area in blood compared to tissue"}}, "note": "“Also recorded” adds a separate entry of the source."}
{"sequence": "GSVGCEECPMHCKGKNANPTCDDGVCNCNV [SEQ ID NO: 55]", "values": [{"measurement": "Blood (densitometric signal in the heart blood)", "setting": "[4]", "value": 1838144857.46255}, {"measurement": "Brain (percentage of signal in that tissue compared to the signal detected in the heart blood)", "setting": "[4]", "value": 6.86, "unit": "%"}, {"measurement": "penetration of the blood brain barrier in comparison with the negative controls", "setting": "reference level for high penetration: at least 10% diffuse signal in brain versus blood", "value": "moderately penetrate the blood brain barrier"}, {"measurement": "Adipose (percentage of signal compared to blood in the heart)", "setting": "[1]", "value": 6.47, "unit": "%"}, {"measurement": "Liver (percentage of signal compared to heart blood)", "setting": "[1]", "value": 51.65, "unit": "%"}, {"measurement": "Lower GI (percentage of signal compared to blood in the heart)", "setting": "[1]", "value": 9.42, "unit": "%"}, {"measurement": "Lung (percentage of signal compared to heart blood)", "setting": "[1]", "value": 84.67, "unit": "%"}, {"measurement": "Muscle (percentage of signal compared to blood in the heart)", "setting": "[1]", "value": 26.87, "unit": "%"}, {"measurement": "Upper GI (percentage of signal compared to blood in the heart)", "setting": "[1]", "value": 128.14, "unit": "%"}, {"measurement": "Bladder", "setting": "[1]; [5]", "value": "Low"}, {"measurement": "Spinal Cord", "setting": "[1]; [5]", "value": "Low"}, {"measurement": "Gall bladder (grade)", "setting": "[1]; value given in words", "value": "ND (ND indicates the peptide was not detected in that tissue)"}, {"measurement": "Pancreas (grade)", "setting": "[1]; value given in words", "value": "Low"}, {"measurement": "Reproductive (grade)", "setting": "[1]; value given in words", "value": "Low"}, {"measurement": "Spleen (grade)", "setting": "[1]; value given in words", "value": "Low"}, {"measurement": "localization of the peptide to specific structures in the brain", "setting": "[2]", "value": "migrate specifically to a region, tissue, structure or cells in the brain, potentially the hippocampus, the CSF, the ventricles, the meninges, and/or the rostral migratory stream; also recorded: specific structures in the brain, such as ventricles and CSF"}, {"measurement": "intact peptide in the brain", "setting": "[3]", "value": "present in the brain"}]}
